Data: patent US10040791B2, “Isoxazole derivative as mutant isocitrate dehydrogenase 1 inhibitor” (Daiichi Sankyo Company, Limited, priority 2014, dated 2018)
pIC50: −log10 of the molar value.

Sequences of proteins named here, by UniProt entry; tags and fusion partners are left off.
UniProt O75874, whole entry R132H: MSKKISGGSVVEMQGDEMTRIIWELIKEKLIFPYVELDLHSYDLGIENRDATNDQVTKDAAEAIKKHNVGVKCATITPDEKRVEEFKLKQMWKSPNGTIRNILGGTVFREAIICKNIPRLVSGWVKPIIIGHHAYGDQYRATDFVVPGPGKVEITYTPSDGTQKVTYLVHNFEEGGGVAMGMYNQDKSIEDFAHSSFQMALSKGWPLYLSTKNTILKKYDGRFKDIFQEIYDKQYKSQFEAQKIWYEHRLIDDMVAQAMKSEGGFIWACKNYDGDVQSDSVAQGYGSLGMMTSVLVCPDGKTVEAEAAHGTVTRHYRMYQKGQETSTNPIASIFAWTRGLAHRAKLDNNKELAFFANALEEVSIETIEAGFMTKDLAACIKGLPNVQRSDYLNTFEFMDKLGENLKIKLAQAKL

These molecules were tested against IDH1R132H (Homo sapiens (Human), UniProt O75874, R132H) (assay: Inhibitory activity against IDH1R132H enzyme (NADPH detection, WST-8)). Details: 12 nM, residual NADPH detected with WST-8, read-out: Test Example 1 IDH1 R132H IC50.
Assay type: biochemical

Row | SMILES | pIC50
1 | C=CC(=O)N1CCC(c2onc(-c3c(Cl)cc(Cl)cc3Cl)c2C(=O)n2cc3c4c(cccc42)/C(=C/C(=O)O)CC3)CC1 [Example 94, (2E)-[1-{[5-(1-Acryloylpiperidin-4-yl)-3-(2,4,6-trichlorophenyl)-1,2-oxazol-4-yl]carbonyl}-3,4-dihydrobenzo[cd]indol-5(1H)-ylidene]ethanoic acid] | 7.62
2 | C=CC(=O)N1CC(c2onc(-c3c(Cl)cc(Cl)cc3Cl)c2C(=O)n2ccc3c(/C=C/C(=O)O)cccc32)C1 [Example 95] | 8.22
3 | C=CC(=O)N1CCCC(c2onc(-c3c(Cl)cc(Cl)cc3Cl)c2C(=O)n2ccc3c(/C=C/C(=O)O)cccc32)C1 (centres unmarked) [Example 96] | 6.83
4 | C=CC(=O)N1CC(OC)(c2onc(-c3c(Cl)cc(Cl)cc3Cl)c2C(=O)n2ccc3c(/C=C/C(=O)O)cccc32)C1 [Example 97] | 7.72
5 | C=CC(=O)N1CC(C)(c2onc(-c3c(Cl)cc(Cl)cc3Cl)c2C(=O)n2ccc3c(/C=C/C(=O)O)cccc32)C1 [Example 98] | 7.72
6 | C#CC(=O)N1CC(c2onc(-c3c(Cl)cc(Cl)cc3Cl)c2C(=O)n2ccc3c(/C=C/C(=O)O)cccc32)C1 [Example 101] | 7.80
7 | C=CC(=O)N1CCC(c2onc(-c3c(Cl)cccc3Cl)c2C(=O)n2ccc3c(/C=C/C(=O)O)cccc32)CC1 [Example 102] | 7.28
8 | C=CS(=O)(=O)N1CCC(c2onc(-c3c(Cl)cc(Cl)cc3Cl)c2C(=O)n2ccc3c(/C=C/C(=O)O)cccc32)CC1 [Example 103] | 7.60
9 | C=CC(=O)N1CCC(c2onc(-c3c(Cl)cc(Cl)cc3Cl)c2C(=O)n2cc(C)c3c(/C=C/C(=O)O)cccc32)CC1 [Example 104] | 7.49
10 | C=CC(=O)N1CCC(c2onc(-c3c(Cl)cc(Cl)cc3Cl)c2C(=O)n2ccc3c(C4CC4C(=O)O)cccc32)CC1 (centres unmarked) [Example 105] | 6.28
11 | C=CC(=O)N1CCC(c2onc(-c3c(Cl)cccc3Cl)c2C(=O)n2cc(C)c3c(/C=C/C(=O)O)cccc32)CC1 [Example 108] | 7.46
12 | C=CC(=O)N1CCC(c2onc(-c3c(C)cc(C)cc3C)c2C(=O)n2ccc3c(/C=C/C(=O)O)cccc32)CC1 [Example 109] | 6.90
13 | C=CC(=O)N1CCC(c2onc(-c3c(C)cc(Cl)cc3C)c2C(=O)n2ccc3c(/C=C/C(=O)O)cccc32)CC1 [Example 110] | 6.80
14 | C=CC(=O)N1CCC(C)(c2onc(-c3c(Cl)cc(Cl)cc3Cl)c2C(=O)n2ccc3c(/C=C/C(=O)O)cccc32)CC1 [Example 111] | 7.16
15 | C=CC(=O)N1CCC(c2onc(-c3c(Cl)cc(F)cc3Cl)c2C(=O)n2cc(C)c3c(/C=C/C(=O)O)cccc32)CC1 [Example 112] | 7.51
16 | C=CC(=O)N1CCC(c2onc(-c3c(Cl)cc(Cl)cc3Cl)c2C(=O)n2cc(C)c3c(CCC(=O)O)cccc32)CC1 [Example 115] | 6.83
17 | C=CC(=O)N1CCC(c2onc(-c3c(Cl)cc(Cl)cc3Cl)c2C(=O)n2ccc3c(/C=C(\C)C(=O)O)cccc32)CC1 [Example 116] | 6.36
18 | C=CC(=O)N1CCC(OC)(c2onc(-c3c(Cl)cc(Cl)cc3Cl)c2C(=O)n2cc(C)c3c(/C=C/C(=O)O)cccc32)CC1 [Example 117] | 7.64

Row | SMILES | pIC50
19 | C=CC(=O)N1CCC(c2onc(-c3c(Cl)cc(Cl)cc3Cl)c2C(=O)n2ncc3c(/C=C/C(=O)O)cccc32)CC1 [Example 118] | 6.29
20 | C/C=C/C(=O)N1CCC(c2onc(-c3c(Cl)cc(Cl)cc3Cl)c2C(=O)n2cc(C)c3c(/C=C/C(=O)O)cccc32)CC1 [Example 119] | 7.14
21 | C=CC(=O)N1CCC(COC)(c2onc(-c3c(Cl)cc(Cl)cc3Cl)c2C(=O)n2ccc3c(/C=C/C(=O)O)cccc32)CC1 [Example 120] | 6.92
22 | C=CC(=O)N1CCC(c2onc(-c3c(C)cc(Cl)cc3C)c2C(=O)n2cc(C)c3c(/C=C/C(=O)O)cccc32)CC1 [Example 122] | 7.49
23 | C=CC(=O)N1CCC(c2onc(-c3c(Cl)cc(Cl)cc3Cl)c2C(=O)n2cc3c4c(cccc42)C(CC(=O)O)CC3)CC1 (centres unmarked) [Example 125] | 6.45
24 | C=CC(=O)N1CCC(c2onc(-c3c(Cl)cc(Cl)cc3Cl)c2C(=O)n2cc(C)c3c(/C=C/C(=O)O)cccc32)(N(C)C)CC1 [Example 126] | 7.43
25 | C=CC(=O)N1CCC(c2onc(-c3ccc(Cl)c(F)c3Cl)c2C(=O)n2cc(C)c3c(/C=C/C(=O)O)cccc32)CC1 [Example 129] | 7.07
26 | C=CC(=O)N1CCC(c2onc(-c3ccc(Cl)cc3Cl)c2C(=O)n2cc3c4c(cccc42)/C(=C/C(=O)O)CC3)CC1 [Example 131, (2E)-[1-{[5-(1-Acryloylpiperidin-4-yl)-3-(2,4-dichlorophenyl)-1,2-oxazol-4-yl]carbonyl}-3,4-dihydrobenzo[cd]indol-5(1H)-ylidene]ethanoic acid] | 7.21
27 | C=CC(=O)N1CCC(c2noc(-c3c(Cl)cc(Cl)cc3Cl)c2C(=O)n2ccc3c(/C=C/C(=O)O)cccc32)CC1 [Example 132, (2E)-3-(1-{[3-(1-Acryloylpiperidin-4-yl)-5-(2,4,6-trichlorophenyl)-1,2-oxazol-4-yl]carbonyl}-1H-indol-4-yl)prop-2-enoic acid] | 6.79
28 | CN(C)c1onc(-c2c(Cl)cccc2Cl)c1C(=O)n1ccc2c(/C=C/C(=O)O)cccc21 [Example 133, (2E)-3-(1-{[3-(2,6-Dichlorophenyl)-5-(dimethylamino)-1,2-oxazol-4-yl]carbonyl}-1H-indol-4-yl)prop-2-enoic acid] | 8.00
29 | CCN(CC)c1onc(-c2c(Cl)cccc2Cl)c1C(=O)n1ccc2c(/C=C/C(=O)O)cccc21 [Example 134, (2E)-3-(1-{[3-(2,6-Dichlorophenyl)-5-(diethylamino)-1,2-oxazol-4-yl]carbonyl}-1H-indol-4-yl)prop-2-enoic acid] | 7.51
30 | O=C(O)/C=C/c1cccc2c1ccn2C(=O)c1c(-c2c(Cl)cccc2Cl)noc1N1CCCC1 [Example 135, (2E)-3-(1-{[3-(2,6-Dichlorophenyl)-5-(pyrrolidin-1-yl)-1,2-oxazol-4-yl]carbonyl}-1H-indol-4-yl)prop-2-enoic acid] | 7.85
31 | O=C(O)/C=C/c1cccc2c1ccn2C(=O)c1c(-c2c(Cl)cccc2Cl)noc1N1CCOCC1 [Example 136, (2E)-3-(1-{[3-(2,6-Dichlorophenyl)-5-(morpholin-4-yl)-1,2-oxazol-4-yl]carbonyl}-1H-indol-4-yl)prop-2-enoic acid] | 7.57
32 | C[C@@H]1CCC[C@H](C)N1c1onc(-c2c(Cl)cccc2Cl)c1C(=O)n1ccc2c(/C=C/C(=O)O)cccc21 [Example 137, (2E)-3-(1-{[3-(2,6-Dichlorophenyl)-5-(cis-2,6-dimethylpiperidin-1-yl)-1,2-oxazol-4-yl]carbonyl}-1H-indol-4-yl)prop-2-enoic acid] | 7.55
33 | CN(C)c1onc(-c2c(Cl)cc(Cl)cc2Cl)c1C(=O)n1ccc2c(/C=C/C(=O)O)cccc21 [Example 138] | 7.92
34 | NC[C@@H]1CCN(c2onc(-c3c(Cl)cccc3Cl)c2C(=O)n2ccc3c(/C=C/C(=O)O)cccc32)C1 [Example 140] | 6.59
35 | C=CC(=O)N1CCN(c2onc(-c3c(Cl)cccc3Cl)c2C(=O)n2ccc3c(/C=C/C(=O)O)cccc32)CC1 [Example 142, (2E)-3-(1-{[5-(4-Acryloylpiperazin-1-yl)-3-(2,6-dichlorophenyl)-1,2-oxazol-4-yl]carbonyl}-1H-indol-4-yl)prop-2-enoic acid] | 7.08
